The test system of test [1] is Sodium- and chloride-dependent GABA transporter 2 (Mus musculus). Kind of test: Inhibition of mouse GAT3 expressed in HEK293 cells assessed as remaining [3H]GABA uptake at 100 uM preincubated for 25 mins followed by [3H]GABA/unlabeled GABA addition measured after 4 mins by liquid scintillation counting analysis.
In test [2] the test system is Sodium- and chloride-dependent betaine transporter (Mus musculus). The experiment in a line: Inhibition of mouse GAT2 expressed in HEK293 cells assessed as remaining [3H]GABA uptake at 100 uM preincubated for 25 mins followed by [3H]GABA/unlabeled GABA addition measured after 10 mins by liquid scintillation counting analysis.
Test [3] concerns the target T1, GABA transporter 4 (Mus musculus) (UniProt P31650).
T1 sequence (whole entry): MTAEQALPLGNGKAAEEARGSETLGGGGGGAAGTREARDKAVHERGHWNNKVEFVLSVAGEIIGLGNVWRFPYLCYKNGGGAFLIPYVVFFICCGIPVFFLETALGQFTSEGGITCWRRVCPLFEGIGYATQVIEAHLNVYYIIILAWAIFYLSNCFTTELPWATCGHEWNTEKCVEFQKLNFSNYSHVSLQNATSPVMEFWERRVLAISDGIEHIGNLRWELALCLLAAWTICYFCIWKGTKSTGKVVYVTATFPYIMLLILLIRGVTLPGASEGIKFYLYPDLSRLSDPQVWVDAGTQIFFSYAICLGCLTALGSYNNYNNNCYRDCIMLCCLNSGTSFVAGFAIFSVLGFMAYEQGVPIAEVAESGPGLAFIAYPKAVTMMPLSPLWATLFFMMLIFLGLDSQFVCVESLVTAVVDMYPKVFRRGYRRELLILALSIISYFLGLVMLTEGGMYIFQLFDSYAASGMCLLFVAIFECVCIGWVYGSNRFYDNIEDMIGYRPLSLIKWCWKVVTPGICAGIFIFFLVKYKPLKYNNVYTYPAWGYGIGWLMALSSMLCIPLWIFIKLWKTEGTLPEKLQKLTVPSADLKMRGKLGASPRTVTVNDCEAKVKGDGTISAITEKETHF
Kind of test: Inhibition of mouse GAT4 expressed in HEK293 cells assessed as remaining [3H]GABA uptake at 100 uM preincubated for 25 mins followed by [3H]GABA/unlabeled GABA addition measured after 4 mins by liquid scintillation counting analysis. Format: cell-based.

Regarding `CN1CC[C@H](CCCC#Cc2ccccc2Cc2ccccc2)[C@@H](C(=O)O)C1` (racemic), the Activity in test [1] turned out to be 79.8%; in test [2], 61.2%.

Consider `CN1CC[C@H](CC/C=C/c2ccccc2Cc2ccccc2)[C@@H](C(=O)O)C1` (racemic), for which the values for the Activity in test [3], in test [1] and in test [2] were 65%, 65% and 91.2%, respectively.

(Values after ChEMBL document CHEMBL3774377 (Bioorg Med Chem, 2016).)
